From patent publication US20240066137A1 (ONEGENE BIOTECHNOLOGY, published 2024)

Biological target: T1, IL-1RA acceptor (UniProt P14778 18-569, limits assumed)
T1 sequence (looked up): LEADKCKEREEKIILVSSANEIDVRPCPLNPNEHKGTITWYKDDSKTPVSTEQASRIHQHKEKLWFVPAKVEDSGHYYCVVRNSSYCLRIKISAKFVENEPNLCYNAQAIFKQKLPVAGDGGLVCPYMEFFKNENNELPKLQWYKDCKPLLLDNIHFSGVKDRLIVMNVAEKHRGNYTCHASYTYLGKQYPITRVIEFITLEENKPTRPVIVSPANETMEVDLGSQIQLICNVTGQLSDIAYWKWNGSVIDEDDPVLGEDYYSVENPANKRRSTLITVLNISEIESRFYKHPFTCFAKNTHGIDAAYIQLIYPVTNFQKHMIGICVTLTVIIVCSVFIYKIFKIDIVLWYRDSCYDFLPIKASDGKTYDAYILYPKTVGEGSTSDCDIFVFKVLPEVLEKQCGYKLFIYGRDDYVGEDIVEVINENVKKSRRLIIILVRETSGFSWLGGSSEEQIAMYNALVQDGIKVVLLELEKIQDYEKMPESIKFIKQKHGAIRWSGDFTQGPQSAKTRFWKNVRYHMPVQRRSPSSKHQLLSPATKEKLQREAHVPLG
Assay: cell-based or functional assay

B1: IL-1RA-Ub (Donor) (other)
chain: MRPSGRKSSKMQAFRIWDVNQKTFYLRNNQLVAGYLQGPNVNLEEKIDVVPIEPHALFLGIHGGKMCLSCVKSGDETRLQLEAVNITDLSENRKQDKRFAFIRSDSGPTTSFESAACPGWFLCTAMEADQPVSLTNMPDEGVMVTKFYFQEDE
IC50, NF-κB reporter gene luciferase assay with IL-1β; n = 2: 0.236 nM
